Earlier results in patent US10213418B2, “Therapeutic uses of berberine formulations” (TWi Biotechnology, Inc., priority 2013, dated 2019).

Settings: in vivo; cited from earlier work

Substance: cetuximab: EGFR inhibitor
- papulopustular rash reported: 83 % of patients
